Drawing on ChEMBL document CHEMBL1133958, “Derivatives of (2R,3R,4S)-2-aminomethylpyrrolidine-3,4-diol are selective alpha-mannosidase inhibitors” (Bioorg Med Chem Lett, 2001), this text covers inhibition for six compounds.

Molecules are shown by their SMILES. The source made the active and inactive calls. The rule behind the calls is not given here.

The nature of the first assay: Percentage inhibition of Beta-galactosidase from Jack bean at 1 mM concentration. The settings on record: Canavalia ensiformis.
By inhibition is commonly meant the relative decrease from the control value, in per cent. For the compound `CC(NCC1NCC(O)C1O)C(O)(c1ccccc1)c1ccccc1` (stereo unspecified), the inhibition was 22%.

`OC1CNC(CNC2CCCC2)C1O` (stereo unspecified) returned an inhibition of 21%.

Compound `OC1CNC(CNCc2ccco2)C1O` (stereo unspecified) came in with an inhibition of 34%.

`OC1CNC(CNCn2ccnc2)C1O` (stereo unspecified) showed an inhibition of 36%.

A further assay can be described thus: Percentage inhibition of Beta-galactosidase from Jack bean at 1 mM concentration; No inhibition. The settings on record: Canavalia ensiformis.
Take `C[C@@H](NCC1NCC(O)C1O)c1ccccc1` (stereo partly specified): the inhibition entry was “inactive”.

Regarding `OC1CNC(CNCc2cccs2)C1O` (stereo unspecified), the inhibition result was “inactive”.
